Reference: publication PMC8399023 (Molecules, 2021)

The chains behind the UniProt entries cited, without tags or fusion partners. Where a name states a change or a piece, a line headed by the entry shows the natural chain unless it says otherwise.
UniProt P34914: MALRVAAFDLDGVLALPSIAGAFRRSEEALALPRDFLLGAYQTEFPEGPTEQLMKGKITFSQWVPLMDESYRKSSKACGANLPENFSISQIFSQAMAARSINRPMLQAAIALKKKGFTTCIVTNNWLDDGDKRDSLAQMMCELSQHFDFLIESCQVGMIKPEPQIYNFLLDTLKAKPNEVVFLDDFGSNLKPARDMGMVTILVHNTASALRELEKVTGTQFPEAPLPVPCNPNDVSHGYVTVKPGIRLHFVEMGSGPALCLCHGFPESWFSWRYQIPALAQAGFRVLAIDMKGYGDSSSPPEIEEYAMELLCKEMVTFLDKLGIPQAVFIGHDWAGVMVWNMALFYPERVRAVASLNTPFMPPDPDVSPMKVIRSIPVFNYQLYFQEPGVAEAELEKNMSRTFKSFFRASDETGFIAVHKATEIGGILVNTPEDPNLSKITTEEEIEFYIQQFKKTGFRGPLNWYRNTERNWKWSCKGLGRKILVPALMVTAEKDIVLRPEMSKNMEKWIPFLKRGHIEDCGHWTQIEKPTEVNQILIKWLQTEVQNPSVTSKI

Columns and labels:
[1] = Pharmacokinetics after IV and PO dosing in cats, with allometric scaling; settings: cat, IV 1.0 mg/kg, individual animals
[2] = target: sEH (Mus musculus, UniProt P34914); experiment: biochemical

| Structure (SMILES) | Kel [1] | Ki [2] |
| --- | --- | --- |
| O=C(Nc1ccc(OC(F)(F)F)cc1)N[C@H]1CC[C@H](Oc2ccc(C(=O)O)cc2)CC1 [EC1728] | 0.03 h⁻¹ | – |
| CC(=O)N1CCC(NC(=O)NC23CC4CC(CC(C4)C2)C3)CC1 [AR9281] | – | 8.77 nM |
